Values quoted from earlier work, collected in PMC12181400, “Leveraging viral genome sequences and machine learning models for identification of potentially selective antiviral agents” (Communications Chemistry, 2025).

Experiments:
Conditions in all cases: cited from earlier work
[1] = system: cell viability (tox21-ar-mda-kb2-luc-antagonist-p2)
[2] = system: cell viability (tox21-ar-mda-kb2-luc-agonist-p3)
[3] = system: cell viability (tox21-ap1-agonist-p1)
[4] = system: cell viability (tox21-are-bla-p1)
[5] = system: cell viability (tox21-car-agonist-p1)

CCC(C)(CN(C)C)OC(=O)c1ccccc1.Cl (centres unmarked) [Amylocaine hydrochloride]
0: tox21-ar-mda-kb2-luc-antagonist-p2-viability (curve rank) [1] | tox21-ar-mda-kb2-luc-agonist-p3-viability (curve rank) [2] | tox21-ap1-agonist-p1-viability (curve rank) [3] | tox21-are-bla-p1-viability (curve rank) [4] | tox21-car-agonist-p1-viability (curve rank) [5]
